The record followed here is patent US20090202513A1, “RIBONUCLEASE AND THIAZOLIDINEDIONE COMPOUNDS AND THEIR USE IN METHODS TO TREAT CANCER” (The University of Vermont and State Agriculture College, priority 2008, published 2009).

Molecules are shown by their SMILES. A value given as a limit tells only on which side of the number the result lay.

The test concerns all cells tested. The settings on record: concentrations used stated to be below LD50.

`CN(CCOc1ccc(CC2SC(=O)NC2=O)cc1)c1ccccn1` (stereo not shown) [rosiglitazone] had an LD50 greater than 20 µM.
